How the values were obtained:
tTA mice = conditions: mouse, in vivo, po, 30 mg/kg
Procedure: (§1) The room temperature was maintained between 20 and 23° C. with a relative humidity maintained around 50%. Chow and water were provided ad libitum for the duration of the study.
(§2) An effect was considered significant if p<0.05.

Tg4510 mice = conditions: mouse, in vivo
Procedure: as §1, §2

## Cc1cc(C)nc(N2CC3CN(C(=O)c4c(F)cccc4-n4nccn4)CC3C2)n1 (centres unmarked) [seltorexant, [5-(4,6-dimethyl-pyrimidin-2-yl)-hexahydro-pyrrolo[3,4-c]pyrrol-2-yl]-(2-fluoro-6-[1,2,3]triazol-2-yl-phenyl)-methanone]
tTA mice
  distance traveled compared with tTA-Vehicle mice (Fisher's LSD): traveled significantly less
Tg4510 mice
  reduction in travel (distance traveled): approximately 50%
